Molecules are shown by their SMILES. “And” between values parts separate entries of the source, which are not always exact repeats. Equal values may be shown once. The list shows a part of the results, in another mix than the full data. The source made the active and inactive calls. Cut-off read from the data, not from the text of the source: active = activity change below about -50%; inconclusive = mostly about -30% to -49%; inactive = weaker than that.

Protein sequences, listed by entry. Tags and fused reporters are not part of them. Lines headed by an entry give the natural chain unless they say otherwise; changes in a name come on top.
UniProt Q9BTU6: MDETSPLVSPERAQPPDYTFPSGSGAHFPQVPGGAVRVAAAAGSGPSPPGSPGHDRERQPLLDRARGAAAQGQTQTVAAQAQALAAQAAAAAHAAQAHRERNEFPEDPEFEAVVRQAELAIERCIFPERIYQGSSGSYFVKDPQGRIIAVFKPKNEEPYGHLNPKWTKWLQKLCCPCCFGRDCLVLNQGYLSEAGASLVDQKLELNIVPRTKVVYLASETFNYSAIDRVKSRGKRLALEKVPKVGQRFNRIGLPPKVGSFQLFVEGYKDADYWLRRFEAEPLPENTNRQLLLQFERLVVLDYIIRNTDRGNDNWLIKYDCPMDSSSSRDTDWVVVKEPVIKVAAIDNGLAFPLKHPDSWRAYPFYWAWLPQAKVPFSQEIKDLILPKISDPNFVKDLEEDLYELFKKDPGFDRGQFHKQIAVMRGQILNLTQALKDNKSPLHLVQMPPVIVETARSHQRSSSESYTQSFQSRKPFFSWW

Consider 77 compounds from PubChem BioAssay AID1346378 (National Center for Advancing Translational Sciences (NCATS), 2018).

In the test the target is Phosphatidylinositol 4-kinase type 2-alpha (Homo sapiens) (UniProt Q9BTU6). In words: qHTS for small molecular inhibitors of PI4K2A.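 Note: -100% = wells without enzyme as full effect.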 Conditions: purified PI4K2A, ADP-Glo luminescence, 1 h; at 76.9 µM, hits give low values. The gist of the method: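 In this quantitative HTS, ADP production by PI4K2A was quantified luminescently after 1 h at ambient temperature; 100 microM adenosine served as plate-quality control.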
(In general: In qHTS, concentration-response curves come from the screen itself.)
Regarding `O=C(O)C(O)c1ccc(N(CCCl)CCCl)cc1` (configuration not stated), the activity change, negative = inhibition is inactive: -8.65%.

`CCOC(=O)Nc1ccc([As](=O)(O)O)c(O)c1`: the activity change, negative = inhibition is inactive: -2.53%.

As to `O=[N+]([O-])c1ccc(Nc2ccc(Oc3ccc([N+](=O)[O-])cc3[N+](=O)[O-])cc2)c([N+](=O)[O-])c1`, the activity change, negative = inhibition is inactive: 2.49%.

Regarding `Cc1cc(SC(NC=O)C(Cl)(Cl)Cl)ncn1` (configuration not stated), the activity change, negative = inhibition is inactive: 6.29%.

Consider `O=P(Nc1ccccn1)(c1cccc2ccccc12)c1cccc2ccccc12`, for which the activity change, negative = inhibition is inactive: 3.79%.

Regarding `CCOC(=O)Nc1cccc([As](=O)(O)O)c1`, the activity change, negative = inhibition is inactive: 2.98%.

For the compound `Cc1ccc2nc3c(c(C)c2c1)CC(C(Cl)Cl)S3` (configuration not stated), the activity change, negative = inhibition was inactive: -1.97%.

Consider `Cc1ccc(OP(=O)(Nc2ccc([N+](=O)[O-])cn2)Oc2ccc(C)cc2)cc1`, for which the activity change, negative = inhibition was inactive: -0.242%.

With `[N-]=[N+]=NC1CCCCC1NC(=O)c1cc([N+](=O)[O-])cc([N+](=O)[O-])c1` (configuration not stated), the activity change, negative = inhibition is inactive: -2.1%.

`O=[As](O)(c1ccc(O)cc1)c1ccccc1O`: the activity change, negative = inhibition is inactive: -2.03%.

On to `C[As](=O)(O)c1cccc(C(=O)O)c1`, for which the activity change, negative = inhibition is inactive: -2.75%.

As to `COc1cc(C(=O)NCC2(N3CCOCC3)CCCCC2)ccc1OCC(C)C`, the activity change, negative = inhibition is inactive: 4.66%.

In the case of `O=[N+]([O-])c1ccc(-c2cc([N+](=O)[O-])c(O)c([N+](=O)[O-])c2)cc1`, the activity change, negative = inhibition is inactive: -0.336%.

For the compound `CCN(CC)C(=S)SC(NC=O)C(Cl)(Cl)Cl` (configuration not stated), the activity change, negative = inhibition was inactive: -2.06%.

As to `O=C(OC1CN2CCC1CC2)c1cccc2[nH]cnc12` (configuration not stated), the activity change, negative = inhibition is inactive: -3.47%.

Take `CC(C)NC(=O)NP(=O)(Oc1ccccc1)Oc1ccccc1`: the activity change, negative = inhibition is inactive: 0.548%.

As for `O=[N+]([O-])c1cc([N+](=O)[O-])c(-c2ccn[nH]2)s1`, the activity change, negative = inhibition is inactive: -8.05%.

As for `CC(C)c1ccc(OP(=O)(Nc2ccccn2)Oc2ccccc2F)cc1` (configuration not stated), the activity change, negative = inhibition was inactive: -2.46%.

In the case of `COC(=O)C1(C)COP(=O)(N2CCCCCC2)OC1` (configuration not stated), the activity change, negative = inhibition is inactive: 3.42%.

In the case of `ClCCSc1nnc(-c2cccnc2)o1`, the activity change, negative = inhibition was inactive: 2.16%.

On to `COc1ccc2nc(NP(=O)(c3ccccc3)c3ccccc3)sc2c1`, for which the activity change, negative = inhibition was inactive: 1.14%.

Consider `COc1cc(I)ccc1[As](=O)(O)O`, for which the activity change, negative = inhibition was inactive: 3.34%.

Consider `O=P1(N(CCCl)CCCl)Nc2ccccc2N1`, for which the activity change, negative = inhibition is inactive: -8.19%.

Regarding `O=P1(N(CCCl)CCCl)OCCCN1CCCl` (configuration not stated), the activity change, negative = inhibition was inactive: 2.42%.

For `O=C(OC1CN2CCC1CC2)C12CC3CC(CC(C3)C1)C2` (configuration not stated), the activity change, negative = inhibition was inactive: -7.04%.

With `Cc1cc(=O)[nH]c(N[N+](=O)[O-])n1`, the activity change, negative = inhibition was inactive: 2.48%.

On to `Cc1c2c(nc3ccccc13)SC(C(Cl)Cl)C2` (configuration not stated), for which the activity change, negative = inhibition was inactive: -1.28%.

As to `COc1ccc(N/C(=N/P(=O)(N2CCOCC2)N2CCOCC2)N2CCOCC2)cc1`, the activity change, negative = inhibition is inactive: -7.71%.

For the compound `O=[N+]([O-])c1cc(Oc2ccc([N+](=O)[O-])cc2C(F)(F)F)cc([N+](=O)[O-])c1`, the activity change, negative = inhibition is inactive: -0.0805%.

Regarding `O=[As](O)(c1cccc(O)c1)c1cccc(O)c1`, the activity change, negative = inhibition was inactive: -0.713%.

`Cc1cccc(OCC(=O)OC2CN3CCC2CC3)c1` (configuration not stated): the activity change, negative = inhibition is inactive: 1.93%.

On to `COc1cc(C(=O)NCC2(N3CCOCC3)CCCCC2)cc(Cl)c1OC(C)C`, for which the activity change, negative = inhibition was inactive: 0.354%.

Consider `O=[As](O)(O)c1cccnc1`, for which the activity change, negative = inhibition is inactive: 9.73%.

Consider `CS(=O)(=O)c1ccc(Cl)c(NC(=O)COC(=O)C(O)(c2ccccc2)c2ccccc2)c1`, for which the activity change, negative = inhibition was inactive: -0.555%.

With `O=C(OC1CN2CCC1CC2)c1ccc(Cl)cc1` (configuration not stated), the activity change, negative = inhibition was inactive: -9.98%.

As to `CN(C(=O)Cc1ccc(Cl)c(Cl)c1)[C@@H]1CC[C@]2(CCCO2)C[C@H]1N1CCCC1`, the activity change, negative = inhibition is inactive: 0.493%.

As for `COc1cc(C2NCCC3(OCCO3)C2(C)C)cc(OC)c1OC` (configuration not stated), the activity change, negative = inhibition is inactive: -4.03%.

Consider `CCOP(=O)(Nc1cccc2ccccc12)OCC`, for which the activity change, negative = inhibition is inactive: -4.03%.

Regarding `CCCOP(=S)(Nc1nc(N)cc(=O)[nH]1)OCCC`, the activity change, negative = inhibition is inactive: -1.6%.

`Cc1ccc(NCCc2c([N+](=O)[O-])cc([N+](=O)[O-])cc2[N+](=O)[O-])cc1`: the activity change, negative = inhibition is inactive: -22.2%.

`Nc1cccc2c([As](=O)(O)O)cccc12`: the activity change, negative = inhibition was inactive: -3.3%.

Regarding `O=C(O)COc1ccc([As](=O)(O)O)cc1[N+](=O)[O-]`, the activity change, negative = inhibition is inactive: 0.554%.

Consider `Nc1ccccc1[As](=O)(O)c1ccccc1`, for which the activity change, negative = inhibition is inactive: -4.64%.

Turning to `CCOP1(=S)c2c(C)nn(CCC#N)c2N=C(c2ccccc2F)N1C` (configuration not stated), the activity change, negative = inhibition is inactive: -1.83%.

With `O=P(Nc1nccs1)(c1ccccc1)c1nc2ccccc2s1` (configuration not stated), the activity change, negative = inhibition is inactive: -26.8%.

In the case of `O=P(Nc1nccs1)(Oc1ccccc1)Oc1ccccc1`, the activity change, negative = inhibition is inactive: 1.21%.

In the case of `O=[N+]([O-])c1ccc2c(c1)nnn2O`, the activity change, negative = inhibition was inactive: -2.93%.

For the compound `CN(C(=O)Cc1ccc(Cl)c(Cl)c1)[C@H]1CC[C@@]2(CCCO2)C[C@@H]1N1CCCC1`, the activity change, negative = inhibition was inactive: 3.07% and inactive: -1.8%.

For the compound `N#CCCN(C(=O)COC(=O)C(O)(c1ccccc1)c1ccccc1)c1ccc(F)cc1`, the activity change, negative = inhibition is inactive: -3.19%.

For the compound `CCOP1(=S)c2c(C)nn(CCC#N)c2N=C(c2ccc(F)cc2)N1C` (configuration not stated), the activity change, negative = inhibition was inactive: 1.37%.

As for `CN(C(=O)Cc1ccccc1)[C@@H]1CC[C@]2(CCCO2)C[C@H]1N1CCCC1`, the activity change, negative = inhibition was inactive: -1.54% and inactive: 2.99%.

In the case of `NC(=O)Nc1ccc([As](=O)(O)O)cc1`, the activity change, negative = inhibition was inactive: 4.18% and inactive: -1.59%.

Turning to `O=C(/C=C/c1ccccc1)OC1CN2CCC1CC2` (configuration not stated), the activity change, negative = inhibition is inactive: 0.732%.

As for `CCCC1OP(=O)(Nc2ccccc2)OCC1CC` (configuration not stated), the activity change, negative = inhibition is inactive: 2.62%.

Turning to `CN(C)C1(CNC(=O)c2ccc(S(C)(=O)=O)cc2)CCCCC1`, the activity change, negative = inhibition is inactive: -3.37%.

As for `Cc1nn(-c2ccccc2)c2c1P(=O)(N1CCOCC1)N(C)C(c1ccccc1)=N2` (configuration not stated), the activity change, negative = inhibition is inactive: 2.09%.

Turning to `Cc1ccc(C(=O)OC2CN3CCC2CC3)cc1` (configuration not stated), the activity change, negative = inhibition is inactive: 3.56%.

Consider `CC1CCC(C(C)C)C(OP(=O)(Nc2ccccn2)c2ccccc2)C1` (configuration not stated), for which the activity change, negative = inhibition is inactive: -14%.

Regarding `NS(=O)(=O)c1cccc(NC(=O)COC(=O)C(O)(c2ccccc2)c2ccccc2)c1`, the activity change, negative = inhibition is inactive: -1.46%.

For `O=P1(Nc2ccc(Br)cn2)COc2ccccc2OC1`, the activity change, negative = inhibition is inactive: 0.953%.

For the compound `Cc1ccc(OCC(=O)OC2CN3CCC2CC3)cc1` (configuration not stated), the activity change, negative = inhibition is inactive: 1.4%.

Take `O=[As](O)(c1cccs1)c1cccs1`: the activity change, negative = inhibition was inactive: -3.26%.

As for `Nc1cccc([As](=O)(O)c2ccccc2)c1`, the activity change, negative = inhibition is inactive: 2.29%.

For the compound `O=P1(Nc2ncccn2)COc2ccccc2OC1`, the activity change, negative = inhibition is inactive: -2.63%.

Consider `Cc1ccc(S(=O)(=O)N(CCCN)CCCc2c(C)nc(N)[nH]c2=O)cc1`, for which the activity change, negative = inhibition was inactive: -7.07%.

In the case of `Clc1n[nH]nc1-c1nn[nH][15n]1`, the activity change, negative = inhibition is inactive: -4.6%.

As to `O=P1(N(CCCl)CCCl)NCCC(C(F)(F)F)O1` (configuration not stated), the activity change, negative = inhibition is inactive: -1.41%.

For the compound `CC(C)(C)C(=O)NC(Sc1ncccn1)C(Cl)(Cl)Cl` (configuration not stated), the activity change, negative = inhibition is inactive: -2.89%.

For `CN(CCCl)Cc1cc(Cl)c(NC2=NCCN2)c(Cl)c1`, the activity change, negative = inhibition was inactive: 4.06% and inactive: -7.22%.

For `CCOP(=O)(Nc1ccc(C)cn1)OCC`, the activity change, negative = inhibition was inactive: -2.23%.

With `CCC1=CC2Cc3nc4ccc(Cl)cc4c(N)c3C(C1)C2` (configuration not stated), the activity change, negative = inhibition is inactive: 3.11%.

In the case of `O=P1(Nc2ccccn2)COc2ccccc2OC1`, the activity change, negative = inhibition is inactive: 7.13%.

For `CCOP(=O)(NC(=NC(C)c1ccccc1)NC(C)c1ccccc1)OCC` (configuration not stated), the activity change, negative = inhibition was inactive: 5.73%.

For the compound `CC1(CBr)Cn2c(nc3ccccc3c2=O)S1` (configuration not stated), the activity change, negative = inhibition was inactive: -8.99%.

As for `CN(C(=O)Cc1ccc(Cl)c(Cl)c1)[C@@H]1CCCC[C@H]1N1CCCC1`, the activity change, negative = inhibition was inactive: 0.562%.

`CC(C)/C=N\N=C(\N)N[N+](=O)[O-]`: the activity change, negative = inhibition is inactive: 2.59%.

For the compound `COc1ccccc1CNC(=O)COC(=O)C(O)(c1ccccc1)c1ccccc1`, the activity change, negative = inhibition was inactive: -4.4%.
